We go through two molecules from publication PMC3412876 (Chemical communications (Cambridge, England), 2011).

For the data set the following is noted: circular dichroism, 10% trifluoroethanol in phosphate buffered saline; estimated from mean residue ellipticity at 222 nm.

In the case of `CC(C)C[C@H](NC(=O)[C@H](CC(C)C)NC(=O)[C@H](CCCCN)NC(=O)[C@H](Cc1c[nH]c2ccccc12)NC(=O)[C@H](CC(C)C)NC(=O)[C@H](CC(=O)O)NC(=O)[C@H](CO)NC(=O)[C@H](Cc1ccccc1)NC(=O)CN1C/C=C/CCC(=O)N[C@@H](CCC(N)=O)C(=O)N[C@@H](CCC(=O)O)C1=O)C(=O)N[C@@H](CO)C(N)=O` [HBS α-helix 2], the “% Helicity” value is 48%.
`CC(C)C[C@H](NC(=O)[C@H](CC(C)C)NC(=O)[C@H](CCCCN)NC(=O)[C@H](Cc1c[nH]c2ccccc12)NC(=O)[C@H](CC(C)C)NC(=O)[C@H](CC(=O)O)NC(=O)[C@H](CO)NC(=O)[C@H](Cc1ccccc1)NC(=O)CN1CCSCCC(=O)N[C@@H](CCC(N)=O)C(=O)N[C@@H](CCC(=O)O)C1=O)C(=O)N[C@@H](CO)C(N)=O` [teHBS α-helix 1]: the “% Helicity” value is on record as 54%.
